Data taken from PubChem BioAssay AID651572 (The Scripps Research Institute Molecular Screening Center, 2012).
This is a selection; strong and weak results do not stand in their true shares. The source made the active and inactive calls.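 Rule for the calls: active = inhibition above a per-plate limit, mean inhibition of low control wells plus 3 SD (cut at about 25% in these data); inactive = the rest.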

The chains behind the UniProt entries cited, without tags or fusion partners. Residues count along the entry.
UniProt Q62848, 1-136 limits assumed: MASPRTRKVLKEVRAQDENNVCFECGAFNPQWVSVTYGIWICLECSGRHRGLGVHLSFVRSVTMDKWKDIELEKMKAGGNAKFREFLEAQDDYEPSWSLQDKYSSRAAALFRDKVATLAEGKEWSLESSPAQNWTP

The compounds below were run against ADP-ribosylation factor GTPase-activating protein 1 (Rattus norvegicus) (UniProt Q62848) (assay: inhibitors of rat ARFGAP1 GAP activity, primary screen, biochemical, fluorescence polarization, GDP tracer (AID 651572;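 note: 0% = DMSO wells with enzyme and 100% = wells lacking Arfgap1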)). Conditions: Arfgap1-stimulated ARF1 GTP hydrolysis, GDP FP detection; at 16.5 µM; hits give high values.
Procedure, shortened: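 System: truncated rat Arfgap1 GAP domain / Medium: HEPES-based buffer, pH 7.5 / Also added: N-terminally truncated human ARF1-GTP substrate / Incubation: enzyme reaction 120 min at 25 °C after 20 min preincubation / Measured by: FP of antibody-bound GDP Alexa 633 tracer, ex 620/em 688 nm / Replicates: singlicate, each compound tested once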

| Compound | inhibition |
| --- | --- |
| CCCCn1nnnc1C(c1ccccc1)N1CCC(n2c(=O)[nH]c3ccccc32)CC1 (stereo not drawn) | inactive: 0.11% |
| COc1cc(C(=O)NCC2(N3CCOCC3)CCCCC2)cc(OC)c1C | inactive: 6.14% |
| O=C(NCC1(N2CCOCC2)CCCCC1)c1cc(Br)ccc1Cl | inactive: 4.44% |
| O=c1[nH]c2ccccc2n1C1CCN(C(c2cccs2)c2nnnn2C2CCCCC2)CC1 (stereo not drawn) | inactive: -11.6% |
| COc1ccc(C(=O)NCC2(N3CCOCC3)CCCCC2)cc1OC | inactive: 3.34% |
| O=c1[nH]c2ccccc2n1C1CCN(C(c2ccnc3ccccc23)c2nnnn2C2CCCC2)CC1 (stereo not drawn) | inactive: -1.37% |
| COc1cccc(C(c2nnnn2C(C)(C)C)N2CCC(n3c(=O)[nH]c4ccccc43)CC2)c1OC (stereo not drawn) | inactive: 9.09% |
| CCOC(=O)N1CCC(Nc2ccc(C)cc2)CC1 | inactive: 7.07% |
| N/C(=N\O)c1c(N)no[n+]1[O-] | inactive: 14.8% |
| O=C(OC1CN2CCC1CC2)C1c2ccccc2C=Cc2ccccc21 (stereo not drawn) | inactive: -1.37% |
| O=c1[nH]c2ccccc2n1C1CCN(C(c2cccs2)c2nnnn2C2CCCC2)CC1 (stereo not drawn) | inactive: 13.2% |
| CCCCn1nnnc1C(c1cccc(OC)c1OC)N1CCC(n2c(=O)[nH]c3ccccc32)CC1 (stereo not drawn) | inactive: 0.38% |
| N#Cc1ccc(C(=O)NCC2(N3CCCCC3)CCCCC2)cc1 | inactive: 9.46% |
| CC(C)(C)OC(=O)N1CCC(N(C(=O)c2ccccc2)c2ccc(Cl)cc2)CC1 | inactive: 3.41% |
| CN(C)C1(CNC(=O)c2cccc(C#N)c2)CCCCC1 | inactive: -0.36% |
| c1ccc(CN2CCC(Nc3ccccc3)CC2)cc1 | inactive: -8.39% |
| C/C(N)=N\P(=O)(Oc1ccccc1)Oc1ccccc1 | inactive: 1.82% |
| Cc1cc(N(CCCl)CCCl)ccc1C=O | inactive: -13.9% |
| CCCN1CCC(Nc2cc(OC)cc(OC)c2)CC1 | inactive: -3.4% |
| O=c1[nH]c2ccccc2n1C1CCN(C(c2ccccc2)c2nnnn2C2CCCC2)CC1 (stereo not drawn) | inactive: -8.21% |
| CC(C)(C)n1nnnc1C(c1cccc2ccccc12)N1CCC(n2c(=O)[nH]c3ccccc32)CC1 (stereo not drawn) | inactive: 0.49% |
| CC(=O)N(c1ccccc1)C1CCNCC1 | inactive: -6.24% |

| Compound | inhibition |
| --- | --- |
| COc1cccc(C(c2nnnn2C2CCCCC2)N2CCC(n3c(=O)[nH]c4ccccc43)CC2)c1OC (stereo not drawn) | inactive: 17.2% |
| CCC(c1nnnn1C1CCCCC1)N1CCC(n2c(=O)[nH]c3ccccc32)CC1 (stereo not drawn) | inactive: -9.25% |
| O=c1[nH]c2ccccc2n1C1CCN(C(c2ccnc3ccccc23)c2nnnn2C2CCCCC2)CC1 (stereo not drawn) | inactive: 3.22% |
| COc1cc(OC)cc(C(=O)NCC2(N3CCCCC3)CCCCC2)c1 | inactive: -18.2% |
| Cc1ccc(C(=O)NCC2(N3CCCCC3)CCCCC2)o1 | inactive: -2.19% |
| Fc1ccccc1NC1CCN(Cc2ccccc2)CC1 | inactive: -1.94% |
| Cc1ccc(NC2(C#N)CCN(Cc3ccccc3)CC2)cc1 | inactive: -0.15% |
| Cc1ccccc1NC1(C#N)CCN(Cc2ccccc2)CC1 | inactive: -2.04% |
| CC(C)(C)n1nnnc1C(c1ccnc2ccccc12)N1CCC(n2c(=O)[nH]c3ccccc32)CC1 (stereo not drawn) | inactive: -14.7% |
| CCN1CCC(Nc2cccc(F)c2)CC1 | inactive: 2.41% |
| COc1ccc(C(c2nnnn2C2CCCCC2)N2CCC(n3c(=O)[nH]c4ccccc43)CC2)cc1 (stereo not drawn) | inactive: 18.1% |
| O=C(NCC1(N2CCCCC2)CCCCC1)c1ccco1 | inactive: -1.94% |
| Cn1c(=O)[nH]cc(N(CCCl)CCCl)c1=O | inactive: -0.33% |
| CN(C)c1ccc(C(=O)NCC2(N3CCCCC3)CCCCC2)cc1 | inactive: -1.04% |
| CCOc1ncccc1C(=O)NCC1(N2CCOCC2)CCCCC1 | inactive: -10.6% |
| CN1CCC(Nc2ccc(F)c(Cl)c2)CC1 | inactive: 8.84% |
| CC(C)(C)OC(=O)N1CCC(Nc2ccccc2)CC1 | inactive: 5.79% |
| O=C(O)C1(Nc2ccccc2)CCN(Cc2ccccc2)CC1 | inactive: -1.61% |
| NN(c1ccccc1)C1CCN(CCc2ccccc2)CC1 | inactive: -5.7% |
| CCCOc1ccc(C(=O)NCC2(N(C)C)CCCCC2)cc1 | inactive: 5.51% |
| O=c1[nH]c2ccccc2n1C1CCN(C(c2cc3ccccc3o2)c2nnnn2C2CCCC2)CC1 (stereo not drawn) | inactive: 1.69% |
| COc1cc(OC)cc(C(=O)NCC2(N3CCOCC3)CCCCC2)c1 | inactive: 1.18% |

| Compound | inhibition |
| --- | --- |
| COc1cccc(C(c2nnnn2C2CCCC2)N2CCC(n3c(=O)[nH]c4ccccc43)CC2)c1OC (stereo not drawn) | inactive: 7.47% |
| COc1cccc(C(=O)N(c2cc(C)cc(C)c2)C2CCN(C(=O)OC(C)(C)C)CC2)c1 | inactive: -3.38% |
| CCC(CO)(C(=O)OC1CN2CCC1CC2)c1ccccc1 (stereo not drawn) | inactive: -10.3% |
| CN1CCC(Nc2ccc(Cl)cc2)CC1 | inactive: -6.64% |
| COc1ccc(C(=O)NCC2(N3CCCCC3)CCCCC2)cc1 | inactive: -6.43% |
| CCC(c1nnnn1C1CCCC1)N1CCC(n2c(=O)[nH]c3ccccc32)CC1 (stereo not drawn) | inactive: -0.84% |
| CC(C)(C)OC(=O)N1CCC(N(C(=O)c2ccccc2)c2ccc(F)cc2)CC1 | inactive: 3.46% |
| COc1ccc(C(=O)NCC2(N3CCCCC3)CCCCC2)c(OC)c1OC | inactive: -1.74% |
| O=C(NCC1(N2CCCCC2)CCCCC1)c1ccc(=O)[nH]c1 | inactive: 17.6% |
| CCCCn1nnnc1C(c1cccs1)N1CCC(n2c(=O)[nH]c3ccccc32)CC1 (stereo not drawn) | inactive: 4.51% |
| O=C(NCC1(N2CCCCC2)CCCCC1)c1cccs1 | inactive: -0.87% |
| CCCCn1nnnc1C(CC)N1CCC(n2c(=O)[nH]c3ccccc32)CC1 (stereo not drawn) | inactive: 6.35% |
| CSc1ccccc1C(=O)NCC1(N2CCCCC2)CCCCC1 | inactive: 3.36% |
| Cc1cccc(NC2(C#N)CCN(Cc3ccccc3)CC2)c1 | inactive: -17.6% |
| O=c1[nH]c2ccccc2n1C1CCN(C(c2ccccc2OC(F)(F)F)c2nnnn2C2CCCCC2)CC1 (stereo not drawn) | inactive: 3.15% |
| O=C(NCC1(N2CCCCC2)CCCCC1)c1ccc(Cl)nc1 | inactive: 0.33% |
| Cc1cc(C)cc(N(C(=O)c2ccccc2)C2CCN(C(=O)OC(C)(C)C)CC2)c1 | inactive: -8.54% |
| O=C(NCC1(N2CCOCC2)CCCCC1)c1cc2ccccc2o1 | inactive: 0.27% |
| O=C(OC1CN2CCC1CC2)C1c2ccccc2Oc2ccccc21 (stereo not drawn) | inactive: 2.22% |
| O=c1[nH]c2ccccc2n1C1CCN(C(c2cc3ccccc3o2)c2nnnn2C2CCCCC2)CC1 (stereo not drawn) | inactive: 8.99% |
| O=C(NCC1(N2CCCCC2)CCCCC1)c1ccc(Cl)s1 | inactive: 3.38% |
| N#CC1(Nc2ccccc2)CCN(Cc2ccccc2)CC1 | inactive: -4.49% |

| Compound | inhibition |
| --- | --- |
| COc1ccc(Cl)cc1C(=O)NCC1(N2CCOCC2)CCCCC1 | inactive: -12.5% |
| CCOC(=O)N1CCC(Nc2ccc(OC)cc2)CC1 | inactive: 8.17% |
| CCCCn1nnnc1C(c1ccc(OC)cc1)N1CCC(n2c(=O)[nH]c3ccccc32)CC1 (stereo not drawn) | inactive: -3.25% |
| CC(C)(C)n1nnnc1C(c1ccccc1)N1CCC(n2c(=O)[nH]c3ccccc32)CC1 (stereo not drawn) | inactive: 12.5% |
| O=C1CCN(Cc2ccccc2)CC1 | inactive: 8.04% |
| CCOc1ccc(C)cc1CN(CCCl)CCCl | inactive: 2.09% |
| O=C(NCC1(N2CCCCC2)CCCCC1)c1ccc(F)cc1 | inactive: -7% |
| CCCCn1nnnc1C(c1cc2ccccc2o1)N1CCC(n2c(=O)[nH]c3ccccc32)CC1 (stereo not drawn) | inactive: -15.1% |
| O=P1(N(CCCl)CCCl)SCCCS1 | inactive: 10.8% |
| CCCCOc1ccc(C(=O)NCC2(N3CCOCC3)CCCCC2)cc1 | inactive: 3.27% |
| COc1ccc(NC2CCN(CCc3ccccc3)CC2)c(OC)c1 | inactive: -10% |
| CCOC(=O)N1CCC(Nc2ccc(F)cc2)CC1 | inactive: -1.94% |
| O=c1[nH]c2ccccc2n1C1CCN(C(c2ccccc2)c2nnnn2C2CCCCC2)CC1 (stereo not drawn) | inactive: 18.2% |
| COc1cc(C(=O)NCC2(N(C)C)CCCCC2)ccc1OC(F)F | inactive: 15.2% |
| CCOC(=O)N1CCC(Nc2cccc(C)c2)CC1 | inactive: -11.6% |
| O=c1[nH]c2ccccc2n1C1CCN(C(c2cccc3ccccc23)c2nnnn2C2CCCC2)CC1 (stereo not drawn) | inactive: -8.17% |
| CC(C)(C)n1nnnc1C(c1ccccc1OC(F)(F)F)N1CCC(n2c(=O)[nH]c3ccccc32)CC1 (stereo not drawn) | inactive: -0.1% |
| O=C(NCC1(N2CCCCC2)CCCCC1)c1ccc(OC(F)F)cc1 | inactive: 21.3% |
| CCN1CCC(Nc2ccc(Cl)cc2)CC1 | inactive: 4.03% |
| N#CC1(Nc2ccccc2)CCN(CCc2ccccc2)CC1 | inactive: 12.2% |
| O=c1[nH]c2ccccc2n1C1CCN(C(c2ccccc2OC(F)(F)F)c2nnnn2C2CCCC2)CC1 (stereo not drawn) | inactive: -3.49% |
| O=C(NCC1(N2CCCCC2)CCCCC1)c1cccc([N+](=O)[O-])c1 | inactive: 5.3% |

| Compound | inhibition |
| --- | --- |
| CSc1ccc(C(=O)NCC2(N3CCOCC3)CCCCC2)cc1 | inactive: -1.15% |
| O=C(NCC1(N2CCCCC2)CCCCC1)c1cccc(C(F)(F)F)c1 | inactive: -1.32% |
| COc1cc(C(=O)NCC2(N3CCCCC3)CCCCC2)ccc1OC(F)F | inactive: -4% |
| O=C(NCC1(N2CCOCC2)CCCCC1)c1cc(=O)[nH]c2ccccc12 | inactive: 10.5% |
| CCCCn1nnnc1C(c1cccc2ccccc12)N1CCC(n2c(=O)[nH]c3ccccc32)CC1 (stereo not drawn) | inactive: -10% |
| CN1CCN(CCOC(=O)C(O)(c2ccccc2)c2ccccc2)CC1 | inactive: -6% |
| CC(C)c1ccc(C(=O)NCC2(N3CCOCC3)CCCCC2)cc1 | inactive: -0.29% |
| COc1ccc(NC2CCN(C(=O)OC(C)(C)C)CC2)cc1 | inactive: -2.15% |
| CC(C)c1ccc(NC2CCN(C(=O)OC(C)(C)C)CC2)cc1 | inactive: -0.89% |
| COc1ccc(CN(CCCl)CCCl)cc1Cl | inactive: -0.71% |
| CN(C)c1cccc(C(=O)NCC2(N3CCCCC3)CCCCC2)c1 | inactive: 14.6% |
| COc1cc(OC)c(C(=O)NCC2(N(C)C)CCCCC2)cc1OC | inactive: 3.9% |
| CCC(c1nnnn1C(C)(C)C)N1CCC(n2c(=O)[nH]c3ccccc32)CC1 (stereo not drawn) | inactive: 2.13% |
| O=C(NCC1(N2CCOCC2)CCCCC1)c1cc(F)c(F)cc1Cl | inactive: 2.58% |
| CCCCn1nnnc1C(c1ccnc2ccccc12)N1CCC(n2c(=O)[nH]c3ccccc32)CC1 (stereo not drawn) | inactive: 1.66% |
| O=C(NCC1(N2CCCCC2)CCCCC1)c1cncc(Br)c1 | inactive: -0.34% |
| CN1CCC(Nc2cccc(F)c2)CC1 | inactive: 15.6% |
| COc1ccc(C(c2nnnn2C2CCCC2)N2CCC(n3c(=O)[nH]c4ccccc43)CC2)cc1 (stereo not drawn) | inactive: 15.6% |
| Cc1ccc(C(=O)NCC2(N(C)C)CCCCC2)o1 | inactive: -3.16% |
| CCCOc1ccc(C(=O)NCC2(N(C)C)CCCCC2)cc1OC | inactive: 4.54% |
